We go through 1 molecule from US11091512B2, “Modulation of antigen immunogenicity by deleting epitopes recognized by NKT cells” (Imnate Sarl, priority 2010, dated 2021).

In the test the test system is CD4+ T cells and NKT cells. In words: peripheral blood CD4+ T cells cultured with human dendritic cells loaded with natural or mutated antibody. The test is classed as cell-based. As to conditions: 5 to 7 days culture. The source says:
Monoclonal human antibodies of the IgG4 isotype were derived from the peripheral blood B lymphocytes by transformation with the Epstein-Barr virus. The genomic sequence of such antibodies was obtained from transformed B cells. A viral vector containing the corresponding cDNA sequence was constructed and used for transfection of CHO cells. All these methods are known in the art (see for instance, Jacquemin et al Blood 92: 496-506, 1998).
The hydrophobic aminoacid residues located in position 1 in the peptides of SEQ ID18 and SEQ ID20 were mutated to a serine and the mutated antibody produced by transfected CHO cells.
Peripheral blood CD4+ T cells obtained as above were exposed in culture medium to human dendritic cells (derived from human peripheral blood monocytes by methods known in the art) and loaded with either the antibody in natural configuration (SEQ ID21) or its mutated counterpart (SEQ ID22). After culturing the cells with CD4+ T cells for 5 to 7 days, the population of CD4+ T cells activated by either natural or mutated antibody was evaluated. CD4+ NKT cells were separated from CD4+ T cells using an antibody to NKG2D, a surface marker associated with NK or NKT cells only.

B1: SEQ ID21: monoclonal human IgG4 antibody in natural configuration (listed as human IgG4 FC fragment) (protein, listed as Homo sapiens)
chain: ASTKGPSVFPLAPCSRSTSESTAALGCLVKDYFPEPVTVSWNSGALTSGVHTFPAVLQSSGLYSLSSVVTVPSSSLGTKTYTCNVDHKPSNTKVDKRVESKYGPPCPSCPAPEFLGGPSVFLFPPKPKDTLMISRTPEVTCVVVDVSQEDPEVQFNWYVDGVEVHNAKTKPREEQFNSTYRVVSVLTVLHQDWLNGKEYKCKVSNKGLPSSIEKTISKAKGQPREPQVYTLPPSQEEMTKNQVSLTCLVKGFYPSDIAVEWESNGQPENNYKTTPPVLDSDGSFFLYSRLTVDKSRWQEGNVFSCSVMHEALHNHYTQKSLSLSLGK
In the case of B1, the “activation of class II restricted CD4+ T cells” value was “CD4+ T cells and NKT cells were activated”. Moreover, the “activation of NKT cells” value (NKT cells separated with antibody to NKG2D) is “CD4+ T cells and NKT cells were activated”.
